Data on two substances can be found in patent publication US6630496B1, “Inhibitors of phospholipase enzymes” (Genetics Institute LLC, priority 1996, dated 2003).

Experiment [1] addresses T1, cPLA2 (Homo sapiens, UniProt P47712).
T1 sequence (P47712 1-749): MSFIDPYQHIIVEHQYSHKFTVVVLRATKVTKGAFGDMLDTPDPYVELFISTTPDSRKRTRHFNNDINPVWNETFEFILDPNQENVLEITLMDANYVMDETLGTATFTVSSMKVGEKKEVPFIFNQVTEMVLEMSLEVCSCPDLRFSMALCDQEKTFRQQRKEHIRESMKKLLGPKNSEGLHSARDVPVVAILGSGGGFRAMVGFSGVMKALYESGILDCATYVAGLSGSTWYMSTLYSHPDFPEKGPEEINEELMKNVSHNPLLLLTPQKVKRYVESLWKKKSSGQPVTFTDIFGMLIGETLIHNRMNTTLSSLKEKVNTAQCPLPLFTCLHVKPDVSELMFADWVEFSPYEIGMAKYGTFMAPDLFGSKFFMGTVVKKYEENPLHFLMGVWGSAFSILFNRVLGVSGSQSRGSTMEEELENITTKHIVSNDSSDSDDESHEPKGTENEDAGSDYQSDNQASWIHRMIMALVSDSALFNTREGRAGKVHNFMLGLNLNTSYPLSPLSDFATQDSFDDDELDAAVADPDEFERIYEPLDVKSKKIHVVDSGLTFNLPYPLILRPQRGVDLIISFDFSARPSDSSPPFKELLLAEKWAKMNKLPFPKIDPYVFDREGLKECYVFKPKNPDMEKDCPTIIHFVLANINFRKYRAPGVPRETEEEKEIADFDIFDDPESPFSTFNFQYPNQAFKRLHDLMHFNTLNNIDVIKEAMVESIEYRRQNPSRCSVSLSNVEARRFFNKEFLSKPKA
Briefly: Soluble substrate assay (LysoPC). The following applies: NA = inhibitory activity not detected; read-out: IC50 (μM) Lyso PC. The experiment is classed as biochemical. An excerpt:
(§1) Tables I-VI also report data for the listed compounds in the “LysoPC” assay and the Coumarine assay (see Example 88 below). In the data columns of the tables, assay results are reported as an “IC50” value, which is the concentration of a compound which inhibits 50% of the activity of the phospholipase enzyme in such assay. Where no numerical IC50 value appears, “NA” denotes that inhibitory activity was not detected from such compound in the corresponding assay and a blank box denotes that the compound was not tested in such assay as of the time of filing of the present application.
(b) Soluble Substrate Assay (LysoPC)
1-[^14C]-palmitoyl-2-hydroxyphosphotidyl-choline (57 mCi/mmol) (final concentration 4.4 μM) was dried under a stream of nitrogen. The lipid was resuspended by vortexing 80 mM Hepes pH 7.5, 1 mM EDTA (1.2×final concentration). A typical assay consisted of lipid suspension (85 μl) to which was added consecutively the inhibitor (5 μl in DMSO) and cPLA2, 200 ng in 80 mM Hepes pH 7.5, 2 mM DTT and […]. This assay was conducted by either the manual assay or automated assay protocol described below.

The target in experiment [2] is T1, cPLA2. The experiment in a line: Coumarine assay (7-hydroxycoumarinyl 6-heptenoate hydrolysis). The following applies: 60 μM 7-hydroxycoumarinyl 6-heptenoate. The experiment is classed as biochemical.
Description: as §1
7-hydroxycoumarinyl 6-heptenoate was used as a monomeric substrate for cPLA2 as reported previously (Huang, Z. et al., 1994, Analytical Biochemistry 222, 110-115). Inhibitors were mixed with 200 μL assay buffer (80 mM Hepes, pH 7.5, 1 mM EDTA) containing 60 μM 7-hydroxycoumarinyl 6-heptenoate. The reaction was initiated by adding 4 μg cPLA2 in 50 μL assay buffer. Hydrolysis of the 7-hydroxycoumarinyl 6-heptenoate ester was monitored in a fluorometer by exciting at 360 nm and monitoring emission at 460 nm. Enzyme activity is proportional to the increasein emission at 460 nm per minute. In the presence of a cPLA2 inhibitor, the rate of increase is less.

As a reminder, the IC50 is the point on the concentration scale where inhibition reaches its midpoint. “3-(2-(5-Benzyloxy-1-(4-benzylbenzoyl)indolinyl)methylthioacetamido)benzoic Acid [Example 52]”: the results for the IC50 in experiment [1] and in experiment [2] were 8 µM and 26 µM, respectively.
In the case of “Methyl 3-(2-(5-Benzyloxy-1-(4-benzylbenzoyl)indolinyl)methylthioacetamido)benzoate [Example 51]”, the 50% inhibitory concentration (IC50) in experiment [1] was determined as 36 µM.
